The values that follow come from PubChem BioAssay AID651719 (The Scripps Research Institute Molecular Screening Center, 2012).

Amino acid sequences for entries named in this document (tags omitted). Residues count along the entry.
UniProt O60755, 1-299 limits assumed: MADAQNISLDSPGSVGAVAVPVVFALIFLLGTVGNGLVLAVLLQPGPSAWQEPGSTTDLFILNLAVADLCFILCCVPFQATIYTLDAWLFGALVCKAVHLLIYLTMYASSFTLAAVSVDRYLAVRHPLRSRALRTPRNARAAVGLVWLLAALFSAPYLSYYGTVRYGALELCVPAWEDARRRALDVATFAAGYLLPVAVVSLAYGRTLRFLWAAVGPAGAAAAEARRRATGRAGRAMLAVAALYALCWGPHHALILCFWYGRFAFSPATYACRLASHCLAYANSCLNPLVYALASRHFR

Each structure is given as a SMILES string. This is a selection; strong and weak results do not stand in their true shares. Calls of active or inactive are those of the source.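 Rule for the calls: active = inhibition above the screen-wide average plus 3 SD (cut at about 13% in these data); inactive = the rest.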

The assay deals with Galanin receptor type 3 (Homo sapiens) (UniProt O60755). As to the kind of experiment: GalR3 antagonists in HEK293 cells, primary screen, cell-based, fluorescence readout (AID 651719).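 Note: forskolin and galanin both at EC90 stimulate the cells; cAMP rise reported by CNG channel membrane potential dye signal; 0% = forskolin plus galanin with DMSO and 100% = forskolin alone.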 The following applies: HEK293 GalR3-CNG cAMP membrane potential fluorescence; at 3 µM; stronger effect = higher value; galR3 body fused to GalR1 C-terminus.
With `O=[N+]([O-])c1cc([N+](=O)[O-])c(Nc2nnnn2CCO)c([N+](=O)[O-])c1`, the inhibition was inactive: -8.27%.
As for `CCOC(=O)C(CC)C1=NC(C)(C)Cc2ccccc21.O=[N+]([O-])c1cc([N+](=O)[O-])c(O)c([N+](=O)[O-])c1` (configuration not stated), the figure is inactive: -2.02%; as for `COc1ccccc1OP(C)(=O)Nc1c(C)cccc1C` (configuration not stated), inactive: 1.59%.
As for `CN1CCCCC1COC(=O)C1(O)c2ccccc2CCc2ccccc21` (configuration not stated), the figure is inactive: -6.55%; as for `COc1ccc(-c2ccccn2)cc1.O=[N+]([O-])c1cc([N+](=O)[O-])c(O)c([N+](=O)[O-])c1`, inactive: -7.22%.
The value for `CP(=O)(Nc1ccc(SC(F)(F)F)cc1)Oc1ccccc1` (configuration not stated) was inactive: -12.5%; that for `CCCOc1ccc(NP(C)(=O)Oc2ccc(Cl)cc2)cc1` (configuration not stated) was inactive: -5.55%.
Take `O=[N+]([O-])c1cc([N+](=O)[O-])c(-n2nnc3ccccc32)c([N+](=O)[O-])c1`: the inhibition is inactive: 2.92%.
As for `CN(Cc1cccnc1)C(=O)COc1ccc(Cl)c(Cl)c1.O=[N+]([O-])c1cc([N+](=O)[O-])c(O)c([N+](=O)[O-])c1`, the figure is inactive: -7.94%.
As for `O=[N+]([O-])c1cc([N+](=O)[O-])c(-c2cnn(-c3ccccc3)c2)c([N+](=O)[O-])c1`, the figure is inactive: 1.49%; as for `Cc1nc2ccc3ccccc3c2s1.O=[N+]([O-])c1cc([N+](=O)[O-])c(O)c([N+](=O)[O-])c1`, inactive: 1.38%; as for `COc1ccccc1OP(C)(=O)Nc1cccc(Br)c1` (configuration not stated), inactive: -0.56%.
The value for `CCOC(=O)c1ccc(NP(C)(=O)Oc2cc(C)cc(C)c2)cc1` (configuration not stated) was inactive: -4.47%; that for `Cc1cc(C)cc(OP(C)(=O)Nc2ccc(C)cc2C)c1` (configuration not stated) was inactive: -1.66%.
Turning to `Cc1ccc(C)c(NP(C)(=O)Oc2ccccc2)c1` (configuration not stated), the inhibition was inactive: -2.56%.
For the molecule `CP(=O)(Nc1cccc(Br)c1)Oc1ccccc1` (configuration not stated), the inhibition is inactive: -2.98%.
As for `Cc1cc(C)cc(OP(C)(=O)Nc2ccccn2)c1` (configuration not stated), the figure is inactive: 0.5%; as for `O=C(O)c1cccc(Nc2c([N+](=O)[O-])cc([N+](=O)[O-])cc2[N+](=O)[O-])c1`, inactive: -5.14%.
The value for `CC1=NCCc2c1[nH]c1ccccc21.O=[N+]([O-])c1cc([N+](=O)[O-])c(O)c([N+](=O)[O-])c1` was inactive: -7.69%; that for `O=[N+]([O-])c1cc([N+](=O)[O-])c(Nc2cccnc2)c([N+](=O)[O-])c1` was inactive: -3.1%; that for `O=[N+]([O-])c1ccc2c(c1)C=Nc1ccccc1O2` was inactive: -6.91%.
The value for `CC(C)(C)c1ccc(OP(C)(=O)Nc2ccc(SC(F)(F)F)cc2)cc1` (configuration not stated) was inactive: -2.7%.

What is called inhibition is the change of the read-out against control, counted positive when it falls.
